System: riPSC-CM cardiomyocyte grafts
Assay: Allogeneic rhesus iPSC-CM transplantation into MHC-mismatched rhesus recipients, histopathological immune rejection of the graft
Assay type: in vivo, rhesus macaque (Macaca mulatta)
Conditions: subcutaneous ABT alone, 12.5 mg/kg biweekly; 8 weeks post-transplant; 200×10^6 riPSC-CMs
Text: FIG. 1. Histological analysis showing that without immunosuppression, cardiomyocyte grafts survived for 2 weeks without rejection, but by 8 weeks they underwent severe cellular rejection with extensive inflammatory infiltration.
Pluripotent stem cell-derived cardiomyocyte (PSC-CM) transplantation is an emerging strategy to treat recent myocardial infarction (MI). […] To identify a minimal, steroid-sparing immunosuppression regimen for first-in-human allogeneic transplantation, a non-human primate (NHP) model was developed where rhesus iPSC-CM are transplanted into normal or infarcted hearts of MHC-mismatched recipients. Allogeneic iPSCs derived from rhesus macaque (Macaca mulatta) were differentiated into a highly enriched population of cardiomyocytes (riPSC-CMs). 200×10^6 riPSC-CMs were transplanted into 11 MHC-mismatched rhesus recipients. The primary study endpoint was the degree of histopathological immune rejection. In the absence of immunosuppression, cardiomyocyte grafts survived for 2 weeks without rejection, but by 8 weeks they underwent severe cellular rejection with extensive inflammatory infiltration by CD3+ T cells and CD20+ B cells leading to graft destruction. Subsequent studies focused on 8-week engraftment, with promising regimens studied further out to 16 weeks. […]

In the case of “Abatacept: fusion protein of a modified Fc region of IgG1 fused to the extracellular domain of CTLA-4”, the “degree of histopathological immune rejection of the graft” value was “moderate to severe rejection”.

From patent publication US20240122990A1, “COMPOSITIONS AND METHODS FOR CARDIOMYOCYTE TRANSPLANTATION” (UNIVERSITY OF WASHINGTON, priority 2021, published 2024)
